Drawing on patent US9233167B2, “Oligomer-opioid agonist conjugates” (NEKTAR THERAPEUTICS, priority 2007, dated 2016), this text covers Ki for three substances.

The target in this test is recombinant human kappa opioid receptor (Homo sapiens (Human), UniProt P41145). In kind it is binding.
Broadly, the Ki is the equilibrium dissociation constant of an inhibitor or competing ligand from its target. For α-6-mPEG9-O-codeine, the Ki worked out at 72.2 µM.
In the case of α-6-mPEG3-O-codeine, the Ki came out at 36.5 µM.
For α-6-mPEG7-O-codeine, the Ki is 108 µM.
